In paper PMC13165411, “The Differential Redox Resilience of Alvelestat and Sivelestat: A Mechanistic Hypothesis for Inhibitor Performance Under Oxidative Stress” (Molecules, 2026) one finds IC50 data, which are given here for one compound.

Experiment [1] deals with T1, Human neutrophil elastase (HNE) (Homo sapiens, UniProt P08246).
T1 construct: purchased Abcam
T1 sequence (P08246 30-267): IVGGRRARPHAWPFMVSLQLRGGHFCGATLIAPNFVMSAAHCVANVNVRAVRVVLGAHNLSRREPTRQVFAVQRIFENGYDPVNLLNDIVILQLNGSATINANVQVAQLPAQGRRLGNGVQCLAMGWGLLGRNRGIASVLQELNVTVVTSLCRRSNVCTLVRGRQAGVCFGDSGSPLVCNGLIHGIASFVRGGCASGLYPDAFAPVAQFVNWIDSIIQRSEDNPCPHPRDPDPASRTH
Description: HNE colorimetric inhibition and steady-state kinetics assay (MeOSuc-Ala-Ala-Pro-Val-pNA), native conditions. The class given is biochemical. As to conditions: substrate 0.15 mM, inhibitor 0.1-100 μM, 37 °C, 45 min, read-out: IC50 against HNE activity. As for the experimental part: HNE activity was assessed through a colorimetric assay based on the hydrolysis of the synthetic peptide substrate MeOSuc-Ala-Ala-Pro-Val-pNA [37]. To determine the steady-state kinetic parameters, 0.4 μg of HNE (corresponding to a final concentration of approximately 0.05 μM) were added to an incubation buffer consisting of 50 mM Tris-HCl, pH 7.8 containing 500 mM NaCl. The reaction was initiated by adding a fixed volume (20 µL) of intermediate substrate working solutions to the enzyme–buffer mixture, reaching a final reaction volume of 200 µL. These working solutions were prepared by diluting a 20 mM substrate stock solution in DMSO with incubation buffer, ensuring that the final DMSO concentration remained constant at 1% (v/v) across all tested substrate concentrations (ranging from 0.075 to 2.4 mM). […] The concentration of p-nitroaniline (p-NA) released into the supernatant was determined by measuring the absorbance at 410 nm. All assays were performed in triplicate, and the kinetic parameters were determined by fitting the experimental data to the Michaelis–Menten equation using GraphPad Prism 8.0 software (GraphPad Software, San Diego, CA, USA). […]
Subsequently, the inhibition constants (Ki) were determined independently from IC50 values by performing steady-state kinetic assays at varying concentrations of both substrate and inhibitors. […]

For experiment [2], the target named is T2, HNE under oxidizing conditions (oxidized HNE) (Homo sapiens, UniProt P08246).
T2 construct: purchased Abcam
T2 sequence (P08246 30-247 limits assumed): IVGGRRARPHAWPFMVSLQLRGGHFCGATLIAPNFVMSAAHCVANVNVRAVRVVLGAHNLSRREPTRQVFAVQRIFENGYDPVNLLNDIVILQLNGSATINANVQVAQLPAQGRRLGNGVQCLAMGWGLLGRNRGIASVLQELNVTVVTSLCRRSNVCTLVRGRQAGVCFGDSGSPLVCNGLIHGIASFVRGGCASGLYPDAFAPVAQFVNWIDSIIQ
Description: HNE inhibition assay under oxidizing conditions (HNE pre-incubated with 44 mM H2O2). The settings on record: HNE pre-incubated with 44 mM H2O2, 60 min, 37 °C; substrate 0.15 mM. The format is biochemical. On the procedure:
HNE activity under oxidative conditions was determined using the colorimetric assay described above. Briefly, HNE was pre-incubated with 1 μL of 30% (w/v) H2O2 (final concentration 44 mM in a total reaction volume of 200 μL) for 60 min at 37 °C. The oxidative conditions used in this study were designed to promote cumulative oxidative modifications of HNE rather than to reproduce physiological ROS concentrations, allowing simulation of oxidative stress in chronically inflamed tissues where repeated ROS exposure leads to progressive protein oxidation. The kinetic parameters of oxidized HNE were determined as described above. Subsequently, inhibition assays were performed by initiating the reaction with substrate (final concentration 0.15 mM) in the presence of increasing concentrations of inhibitor (0.1–100 μM). The reaction mixtures were then incubated at 37 °C for 45 min and then terminated by the addition of 20 μL of 0.45 M TCA. Samples were cooled on ice, centrifuged, and analyzed as described in Section 2.4.
Residual enzymatic activity (%) was calculated relative to HNE activity in the absence of inhibitors, set as 100%. The lowest observed activity under the experimental conditions was taken as the maximal inhibition achieved within this assay range.

In the case of `CC(C)(C)C(=O)Oc1ccc(S(=O)(=O)Nc2ccccc2C(=O)NCC(=O)O)cc1` [Sivelestat], the IC50 in experiment [1] was 850 ± 80 nM; in experiment [2], greater than 100000 nM.
